In one assay the target is H3 (h) (Homo sapiens, UniProt Q9Y5N1). The following applies: Specific binding; reference compound.
A further assay concerns the target T1, A2B (h) (Homo sapiens, UniProt P29275).
T1 sequence (P29275 1-332): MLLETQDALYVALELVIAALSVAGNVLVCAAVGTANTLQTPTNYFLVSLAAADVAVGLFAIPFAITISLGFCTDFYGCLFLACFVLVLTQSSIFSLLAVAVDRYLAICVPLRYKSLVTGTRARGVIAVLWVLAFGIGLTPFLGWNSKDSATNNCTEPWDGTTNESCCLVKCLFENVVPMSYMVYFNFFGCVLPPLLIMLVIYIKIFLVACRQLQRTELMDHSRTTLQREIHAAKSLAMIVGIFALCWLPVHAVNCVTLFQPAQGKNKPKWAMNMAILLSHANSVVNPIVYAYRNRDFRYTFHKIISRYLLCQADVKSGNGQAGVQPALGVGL
Nature of the assay: Eurofins panel: A2B (h) (antagonist radioligand). The following applies: reference compound.

By UniProt entry, the sequences of proteins in these tests, tags left out. Where a name states a change or a piece, a line headed by the entry shows the natural chain unless it says otherwise.
UniProt Q9Y5N1: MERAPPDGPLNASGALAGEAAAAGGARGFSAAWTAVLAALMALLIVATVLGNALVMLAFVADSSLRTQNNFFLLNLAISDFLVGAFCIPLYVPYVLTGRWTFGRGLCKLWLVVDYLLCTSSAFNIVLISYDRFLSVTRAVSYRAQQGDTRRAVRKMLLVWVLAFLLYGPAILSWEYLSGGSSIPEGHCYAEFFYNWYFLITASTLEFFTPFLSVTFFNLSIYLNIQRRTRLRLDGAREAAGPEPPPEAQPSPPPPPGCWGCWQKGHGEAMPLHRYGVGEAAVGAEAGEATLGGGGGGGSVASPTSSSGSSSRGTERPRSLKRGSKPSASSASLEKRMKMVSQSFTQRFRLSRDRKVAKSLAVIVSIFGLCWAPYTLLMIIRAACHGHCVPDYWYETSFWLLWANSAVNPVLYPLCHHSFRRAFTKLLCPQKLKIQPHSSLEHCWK
UniProt P28222, whole entry: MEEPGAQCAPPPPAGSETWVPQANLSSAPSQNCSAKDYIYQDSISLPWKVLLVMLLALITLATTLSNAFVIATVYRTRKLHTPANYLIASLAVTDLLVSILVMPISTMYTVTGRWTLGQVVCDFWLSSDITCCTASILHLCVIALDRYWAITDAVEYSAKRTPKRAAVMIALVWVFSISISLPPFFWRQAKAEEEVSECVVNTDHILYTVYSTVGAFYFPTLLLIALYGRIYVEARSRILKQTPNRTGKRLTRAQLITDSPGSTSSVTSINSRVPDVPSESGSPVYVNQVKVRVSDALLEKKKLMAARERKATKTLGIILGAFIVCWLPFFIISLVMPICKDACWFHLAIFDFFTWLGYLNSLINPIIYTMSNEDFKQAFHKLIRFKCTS
UniProt P34972, whole entry: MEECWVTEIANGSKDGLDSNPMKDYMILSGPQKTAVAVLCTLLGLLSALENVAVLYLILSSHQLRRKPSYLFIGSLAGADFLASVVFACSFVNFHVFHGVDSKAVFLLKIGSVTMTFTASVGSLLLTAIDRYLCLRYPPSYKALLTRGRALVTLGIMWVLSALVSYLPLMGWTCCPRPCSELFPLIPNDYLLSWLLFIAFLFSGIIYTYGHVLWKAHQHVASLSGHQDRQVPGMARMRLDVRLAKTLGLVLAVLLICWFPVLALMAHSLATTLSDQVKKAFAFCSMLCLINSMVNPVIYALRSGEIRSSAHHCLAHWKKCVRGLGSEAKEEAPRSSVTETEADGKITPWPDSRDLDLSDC
UniProt P31645, whole entry: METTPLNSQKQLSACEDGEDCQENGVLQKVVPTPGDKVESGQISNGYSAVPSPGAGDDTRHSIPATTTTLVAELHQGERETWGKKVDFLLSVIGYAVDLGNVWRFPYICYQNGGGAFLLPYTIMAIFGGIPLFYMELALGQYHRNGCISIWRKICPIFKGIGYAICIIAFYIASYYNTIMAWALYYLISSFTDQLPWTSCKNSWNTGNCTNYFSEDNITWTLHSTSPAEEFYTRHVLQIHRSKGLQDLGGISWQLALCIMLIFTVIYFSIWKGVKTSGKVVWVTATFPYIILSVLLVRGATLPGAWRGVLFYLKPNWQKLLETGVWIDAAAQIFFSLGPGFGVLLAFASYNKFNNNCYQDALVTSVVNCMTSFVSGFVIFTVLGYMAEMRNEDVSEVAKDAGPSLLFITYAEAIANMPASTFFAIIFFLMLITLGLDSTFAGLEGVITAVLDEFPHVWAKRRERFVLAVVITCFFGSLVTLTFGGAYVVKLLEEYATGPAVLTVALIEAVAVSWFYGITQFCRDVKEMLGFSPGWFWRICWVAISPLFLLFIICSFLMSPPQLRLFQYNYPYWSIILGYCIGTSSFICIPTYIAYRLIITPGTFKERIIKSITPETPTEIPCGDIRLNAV

A further assay deals with 5-HT1B (h) (Homo sapiens, UniProt P28222). Nature of the assay: Eurofins panel: 5-HT1B (h) (antagonist radioligand). Particulars: reference compound.
The target in the next assay is CB2 (h) (Homo sapiens, UniProt P34972). The experiment in a line: CB2 (h) (agonist radioligand), Eurofins assay 37. Particulars: Specific binding; reference compound.
In a further assay the target is 5-HT transporter (h) (Homo sapiens, UniProt P31645). The experiment in a line: Eurofins panel: 5-HT transporter (h) (antagonist radioligand). The following applies: reference compound.

The compound `C[C@@H](N)Cc1cnc[nH]1` [(R)alpha -Me-histamine] came in with a nH at H3 (h) of 1.076.

Consider `CCNC(=O)[C@H]1O[C@@H](n2cnc3c(N)ncnc32)[C@H](O)[C@@H]1O` [NECA], for which the “nH, Specific binding” value at A2B (h) came to 1.052.

As to `NCCc1c[nH]c2ccc(O)cc12` [Serotonine], the “nH, Specific binding” value on 5-HT1B (h) is given as 1.521.

On CB2 (h), `Cc1c(C(=O)c2cccc3ccccc23)c2cccc3c2n1[C@H](CN1CCOCC1)CO3` [WIN 55212-2] displayed a nH of 1.321.

In the case of `CN(C)CCCN1c2ccccc2CCc2ccccc21` [imipramine], the “nH, Specific binding” value at 5-HT transporter (h) amounted to 0.9241.

Values taken from paper PMC11956013, “Structure–Activity Relationships and Evaluation of 2-(Heteroaryl-cycloalkyl)-1H-indoles as Tauopathy Positron Emission Tomography Radiotracers” (Journal of Medicinal Chemistry, 2025).
